In patent US7875602B2 (priority 2005, dated 2011):

Key:
[1] = tested on: HCT116: human colon cancer cell line; assay: cells; conditions: HCT-116, 72 h, read-out: IC50 (nM) HCT116
[2] = tested on: VM46: taxol-resistant, overexpressing multi-drug resistant gene, sub-line of HCT-116; assay: cells; conditions: Homo sapiens, HCT-116, 72 h, read-out: IC50 (nM) VM46

SMILES	IC50 [1]	IC50 [2]
CC[C@@]1(OC(=O)CON=C2c3ccccc3-c3ccccc32)C(=O)OCc2c1cc1n(c2=O)Cc2cc3ccccc3nc2-1 [Compound 19]	3 nM	0.6 nM
CC[C@@]1(OC(=O)C(C)ON=C2c3ccccc3-c3ccccc32)C(=O)OCc2c1cc1n(c2=O)Cc2cc3cc(OC(=O)OC(C)(C)C)ccc3nc2-1 (some centres unmarked) [Compound 21]	3 nM	0.6 nM
CC[C@]1(OC(=O)[C@H](C)ON=C2c3cc([N+](=O)[O-])cc([N+](=O)[O-])c3-c3c2cc([N+](=O)[O-])cc3[N+](=O)[O-])C(=O)OCc2c1cc1n(c2=O)Cc2cc3c(CN(C)C)c(O)ccc3nc2-1 [Compound 12]	7.7 nM	5.7 nM
CC[C@@]1(O)C(=O)OCc2c1cc1n(c2=O)Cc2cc3c(CN(C)C)c(O)ccc3nc2-1 [Topotecan, (20S)-9-dimethylaminomethyl-10-hydroxy CPT, reference compound]	10.3 nM	10.6 nM
CC[C@@]1(OC(=O)[C@H](C)ON=C2c3cc([N+](=O)[O-])cc([N+](=O)[O-])c3-c3c2cc([N+](=O)[O-])cc3[N+](=O)[O-])C(=O)OCc2c1cc1n(c2=O)Cc2cc3ccccc3nc2-1 [Compound 17]	4 nM	3 nM
CC[C@@]1(OC(=O)CON=C2c3cc([N+](=O)[O-])cc([N+](=O)[O-])c3-c3c2cc([N+](=O)[O-])cc3[N+](=O)[O-])C(=O)OCc2c1cc1n(c2=O)Cc2cc3c(CN(C)C)c(O)ccc3nc2-1 [Compound 16]	8.6 nM	6.7 nM
CC[C@@]1(OC(=O)[C@@H](C)ON=C2c3cc([N+](=O)[O-])cc([N+](=O)[O-])c3-c3c2cc([N+](=O)[O-])cc3[N+](=O)[O-])C(=O)OCc2c1cc1n(c2=O)Cc2cc3cc(O)ccc3nc2-1 [Compound 20]	3.3 nM	1.5 nM
CC[C@@]1(OC(=O)CON=C2c3cc([N+](=O)[O-])cc([N+](=O)[O-])c3-c3c2cc([N+](=O)[O-])cc3[N+](=O)[O-])C(=O)OCc2c1cc1n(c2=O)Cc2cc3cc(OC(=O)OC(C)(C)C)ccc3nc2-1 [Compound 8, 20-O-(TNF-ethanoyl)-Boc-10H-CPT ester]	3 nM	0.6 nM
CC[C@@]1(OC(=O)[C@@H](C)ON=C2c3cc([N+](=O)[O-])cc([N+](=O)[O-])c3-c3c2cc([N+](=O)[O-])cc3[N+](=O)[O-])C(=O)OCc2c1cc1n(c2=O)Cc2cc3c(CN(C)C)c(O)ccc3nc2-1 [Compound 10]	16.4 nM	11 nM
CC[C@@]1(OC(=O)[C@@H](C)ON=C2c3cc([N+](=O)[O-])cc([N+](=O)[O-])c3-c3c2cc([N+](=O)[O-])cc3[N+](=O)[O-])C(=O)OCc2c1cc1n(c2=O)Cc2cc3ccccc3nc2-1 [Compound 13]	3.2 nM	3 nM
